Laboratory results published in PMC11079024, “Identification of a family of species-selective complex I inhibitors as potential anthelmintics” (Nature Communications, 2024).
“And” between values parts separate entries of the source, which are not always exact repeats. Identical values can stand only once. Like-named read-outs stand apart in the source and are kept apart here.

By UniProt entry, the sequences of proteins in these tests, tags left out. Residues count along the entry.
UniProt P03887, whole entry: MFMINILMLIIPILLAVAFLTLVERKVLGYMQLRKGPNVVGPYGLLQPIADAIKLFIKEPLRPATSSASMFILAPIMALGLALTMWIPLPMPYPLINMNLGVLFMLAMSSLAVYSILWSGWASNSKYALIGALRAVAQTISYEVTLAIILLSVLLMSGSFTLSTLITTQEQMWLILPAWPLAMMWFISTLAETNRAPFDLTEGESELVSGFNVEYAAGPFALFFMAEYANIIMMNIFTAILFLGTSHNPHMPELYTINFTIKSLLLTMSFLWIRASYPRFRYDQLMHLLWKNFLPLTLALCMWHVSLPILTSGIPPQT
UniProt P17694, 34-463: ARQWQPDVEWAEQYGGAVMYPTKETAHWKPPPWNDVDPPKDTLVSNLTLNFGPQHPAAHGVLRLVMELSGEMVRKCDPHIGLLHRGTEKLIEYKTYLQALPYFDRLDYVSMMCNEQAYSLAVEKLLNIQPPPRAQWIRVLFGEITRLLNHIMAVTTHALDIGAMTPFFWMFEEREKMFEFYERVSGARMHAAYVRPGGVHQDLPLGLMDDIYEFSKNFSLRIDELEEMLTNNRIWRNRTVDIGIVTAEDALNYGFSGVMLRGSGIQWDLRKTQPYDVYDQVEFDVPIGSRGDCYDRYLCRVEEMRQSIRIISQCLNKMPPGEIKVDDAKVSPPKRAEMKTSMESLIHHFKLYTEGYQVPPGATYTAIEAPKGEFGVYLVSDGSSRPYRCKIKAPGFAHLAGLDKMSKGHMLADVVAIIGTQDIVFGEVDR
UniProt P42026, 38-216: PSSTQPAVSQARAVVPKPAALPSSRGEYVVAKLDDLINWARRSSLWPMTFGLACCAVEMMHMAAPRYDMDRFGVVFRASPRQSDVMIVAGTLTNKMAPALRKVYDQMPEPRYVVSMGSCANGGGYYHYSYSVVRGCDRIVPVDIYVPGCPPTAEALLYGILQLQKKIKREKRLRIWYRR

Key:
[1] = system: P. hermaphrodita complex I; assay: In vitro complex I activity assay, P. hermaphrodita mitochondria; assay type: biochemical, Phasmarhabditis hermaphrodita
C. briggsae complex I = target: T1, C. briggsae complex I (Caenorhabditis briggsae, UniProt A8X476+A8XFG2+Q8HEC4); assay: In vitro complex I activity assay, C. briggsae mitochondria; assay type: biochemical; details: for in vitro complex I activity relative to solvent control: single replicate
T1 sequence (A8X476 31-482): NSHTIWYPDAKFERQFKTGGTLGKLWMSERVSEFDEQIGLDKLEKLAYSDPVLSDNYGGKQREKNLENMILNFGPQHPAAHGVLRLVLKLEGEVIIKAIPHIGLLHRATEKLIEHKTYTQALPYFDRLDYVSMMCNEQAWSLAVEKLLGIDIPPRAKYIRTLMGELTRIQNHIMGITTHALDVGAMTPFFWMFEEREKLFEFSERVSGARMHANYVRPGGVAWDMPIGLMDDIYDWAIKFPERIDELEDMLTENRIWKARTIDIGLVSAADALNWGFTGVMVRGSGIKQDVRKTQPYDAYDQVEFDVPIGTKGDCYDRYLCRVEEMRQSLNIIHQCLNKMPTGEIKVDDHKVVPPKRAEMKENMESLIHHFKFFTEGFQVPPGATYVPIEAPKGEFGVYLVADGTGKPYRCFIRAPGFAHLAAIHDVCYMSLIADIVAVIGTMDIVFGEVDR
T1 sequence (A8XFG2 17-199): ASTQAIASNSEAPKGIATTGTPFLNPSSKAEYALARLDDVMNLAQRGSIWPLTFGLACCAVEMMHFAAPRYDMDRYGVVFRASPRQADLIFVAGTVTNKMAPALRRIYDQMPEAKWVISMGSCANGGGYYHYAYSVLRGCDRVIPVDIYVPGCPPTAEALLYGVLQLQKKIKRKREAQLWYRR
T1 sequence (Q8HEC4 1-291): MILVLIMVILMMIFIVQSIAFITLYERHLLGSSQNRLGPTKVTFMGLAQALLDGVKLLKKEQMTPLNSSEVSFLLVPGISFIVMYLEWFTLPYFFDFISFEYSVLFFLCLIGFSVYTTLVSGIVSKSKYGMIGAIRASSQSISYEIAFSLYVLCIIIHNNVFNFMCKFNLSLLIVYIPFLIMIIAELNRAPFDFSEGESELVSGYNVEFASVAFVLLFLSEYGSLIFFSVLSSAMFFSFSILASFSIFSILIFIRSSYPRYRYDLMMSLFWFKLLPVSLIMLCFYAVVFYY

[2] = target: B. taurus (heart) complex I (Bos taurus, UniProt P03887+P17694+P42026); assay type: biochemical; details: for percent (%) in vitro complex I activity relative to solvent control / in vitro complex I activity relative to solvent control: B. taurus (heart) mitochondria, single replicate

SMILES: CC(C)Cc1ccc(C(C)c2nc3ccccc3n2C)cc1 (stereo not drawn) [NPD8790]
- in vitro complex I activity relative to solvent control ([1]; 15 µM, Mean): 15.932%
- in vitro complex I activity relative to solvent control ([1]; 15 µM, Mean of replicates): 17.736%
- in vitro complex I activity relative to solvent control ([1]; 15 µM, single replicate): 0.309% and 22.340% and 30.559% and 2.751% and 18.041% and 27.005%
- in vitro complex I activity relative to solvent control ([1]; 37.5 µM, Mean): 16.526%
- in vitro complex I activity relative to solvent control ([1]; 37.5 µM, Mean of replicates): 22.254%
- in vitro complex I activity relative to solvent control ([1]; 37.5 µM, single replicate): 22.531% and 14.928% and 29.304% and 13.442% and 10.195% and 25.942%
- in vitro complex I activity relative to solvent control ([1]; 75 µM, Mean): 12.171%
- in vitro complex I activity relative to solvent control ([1]; 75 µM, Mean of replicates): 14.958%
- in vitro complex I activity relative to solvent control ([1]; 75 µM, single replicate): 11.008% and 13.246% and 20.619% and 8.371% and 10.450% and 17.691%
- in vitro complex I activity relative to solvent control (C. briggsae complex I; 0.0001 µM): 95.759% and 91.268%
- in vitro complex I activity relative to solvent control (C. briggsae complex I; 0.0005 µM): 94.520% and 94.808%
- in vitro complex I activity relative to solvent control (C. briggsae complex I; 0.001 µM): 101.737% and 104.812%
- in vitro complex I activity relative to solvent control (C. briggsae complex I; 0.0025 µM): 116.836% and 120.629%
- in vitro complex I activity relative to solvent control (C. briggsae complex I; 0.005 µM): 106.999% and 118.433% and 130.348%
- remaining activity at 0.013 µM (C. briggsae complex I; 0.013 µM, Mean, read-out: in vitro complex I activity relative to solvent control): 116%
- in vitro complex I activity relative to solvent control (C. briggsae complex I; 0.013 µM): 111.242% and 107.535% and 130.182%
- in vitro complex I activity relative to solvent control (C. briggsae complex I; 0.025 µM): 103.091% and 100.391% and 122.835%
- in vitro complex I activity relative to solvent control (C. briggsae complex I; 0.313 µM): 88.072% and 92.566%
- in vitro complex I activity relative to solvent control (C. briggsae complex I; 0.625 µM): 71.194% and 69.504%
- in vitro complex I activity relative to solvent control (C. briggsae complex I; 1.5 µM): 60.471% and 52.885%
- in vitro complex I activity relative to solvent control (C. briggsae complex I; 3 µM): 43.881% and 32.774%
- in vitro complex I activity relative to solvent control (C. briggsae complex I; 7.5 µM): 36.822% and 17.413% and 21.038%
- in vitro complex I activity relative to solvent control (C. briggsae complex I; 15 µM): 25.255% and 14.163% and 8.486%
- in vitro complex I activity relative to solvent control (C. briggsae complex I; 37.5 µM): 22.112% and 7.770% and 5.213%
- in vitro complex I activity relative to solvent control (C. briggsae complex I; 75 µM): 17.813% and 9.208% and 0.615%
- percent (%) in vitro complex I activity relative to solvent control ([2]; 0.125 µM): 111.398% and 110.709% and 87.488% and 92.420%
- percent (%) in vitro complex I activity relative to solvent control ([2]; 0.313 µM): 118.464% and 105.228% and 106.985%
- percent (%) in vitro complex I activity relative to solvent control ([2]; 0.625 µM): 106.273% and 97.568% and 112.424%
- percent (%) in vitro complex I activity relative to solvent control ([2]; 1.5 µM): 108.615% and 114.555% and 94.027% and 109.488%
- percent (%) in vitro complex I activity relative to solvent control ([2]; 3 µM): 105.743% and 114.475% and 92.946% and 103.733%
- percent (%) in vitro complex I activity relative to solvent control ([2]; 7.5 µM): 102.567% and 109.904% and 86.068% and 95.145%
- percent (%) in vitro complex I activity relative to solvent control ([2]; 15 µM): 82.876% and 90.607% and 69.676% and 74.384%
- percent (%) in vitro complex I activity relative to solvent control ([2]; 37.5 µM): 49.756% and 32.716% and 30.663%
- percent (%) in vitro complex I activity relative to solvent control ([2]; 75 µM): 6.165% and 16.790% and 16.865% and 14.475%
- in vitro complex I activity relative to solvent control ([2]; 0.06 µM): 101.538% and 112.181% and 91.251% and 105.094%
- in vitro complex I activity relative to solvent control ([2]; 0.13 µM): 111.398% and 110.709% and 87.488% and 92.420%
- in vitro complex I activity relative to solvent control ([2]; 0.313 µM): 118.464% and 105.228% and 106.985%
- in vitro complex I activity relative to solvent control ([2]; 0.625 µM): 106.273% and 97.568% and 112.424%
- in vitro complex I activity relative to solvent control ([2]; 1.5 µM): 108.615% and 114.555% and 94.027% and 109.488%
- in vitro complex I activity relative to solvent control ([2]; 3 µM): 105.743% and 114.475% and 92.946% and 103.733%
- in vitro complex I activity relative to solvent control ([2]; 7.5 µM): 102.567% and 109.904% and 86.068% and 95.145%
- in vitro complex I activity relative to solvent control ([2]; 15 µM): 82.876% and 90.607% and 69.676% and 74.384%
- in vitro complex I activity relative to solvent control ([2]; 37.5 µM): 49.756% and 32.716% and 30.663%
- in vitro complex I activity relative to solvent control ([2]; 75 µM): 6.165% and 16.790% and 16.865% and 14.475%
- Complex I activity, dose-response data ([2]; B. taurus, dose 0.025 µM, individual replicates (Rep)): 115.572
- B. taurus: C. elegans IC50 Fold Change (Complex I IC50 ~Fold Change) ([2]; heart mitochondria): 11.6 and > 10 and 11.56
- Complex I IC50 ~Fold Change ([2]; heart mitochondria): 11.56
- IC50 Fold change ([2]; heart mitochondria): 11.56
